Laboratory results from published antibiotic growth screens (doi:10.1038/s41589-023-01349-8).
The list shows a part of the results.

system: A. baumannii ATCC 17978; test: relative growth (fraction of control); higher = less inhibition; details: 50 µM

| Compound | relative growth |
| --- | --- |
| Cc1ccc(S(=O)(=O)NCC[C@@H]2CC[C@@H](NS(=O)(=O)c3ccccc3Cl)[C@H](CO)O2)cc1 | 1.11 |
| Cn1nnc2c(C(N)=O)ncn2c1=O | 0.937 |
| Cn1cnc(S(=O)(=O)N[C@H]2CC[C@H](CC(=O)NCC3CC3)O[C@@H]2CO)c1 | 0.815 |
| COc1ccc(S(=O)(=O)N(CC(=O)O)c2ccc(N(CC(=O)O)S(=O)(=O)c3ccc(OC)cc3)c3ccccc23)cc1 | 1.13 |
| COc1ccccc1C#Cc1cnc2c(c1)C(=O)N([C@H](C)CO)C[C@@H](C)[C@@H](CN(C)C(=O)CC1CC1)O2 | 0.789 |
| Cn1cnc(CCNC(=O)C[C@H]2CC[C@@H]3[C@H](COC[C@@H](O)CN3C(=O)C3CC3)O2)c1 | 0.857 |
| COc1ccc(S(=O)(=O)N[C@@H]2CC[C@H](CC(=O)N3CCN(c4ccccc4)CC3)O[C@H]2CO)cc1 | 1 |
| CN1CCN(C(=O)C[C@H]2CC[C@@H]3[C@H](COC[C@H](O)CN3C(=O)C3CCCC3)O2)CC1 | 0.929 |
| CC(C)NCC(O)COc1cccc2[nH]ccc12 (configuration not stated) | 1.06 |
| COC[C@@H]1CNN1C(=O)c1cc(C)oc1C | 1.15 |
| C/C=C/c1cnc2c(c1)C(=O)N([C@H](C)CO)C[C@@H](C)[C@H](CN(C)S(=O)(=O)c1ccc(OC)cc1)O2 | 0.851 |
| CCOc1ccc(/C=C/C(=O)Sc2ccc(Cl)cc2)cc1 | 1.47 |
| COc1cccc(NC(=O)N2C[C@H](O)COC[C@@H]3O[C@H](CC(=O)NCCCN4CCOCC4)CC[C@H]32)c1 | 1.15 |
| COc1cccc(S(=O)(=O)N[C@@H]2CC[C@@H](CC(=O)NC3CCC3)O[C@H]2CO)c1 | 1.01 |
| NC(=O)c1ccc(CN2CCOCC2)cc1 | 1.05 |
| CC(C)CNc1nc(=O)cn[nH]1 | 0.987 |
| CCOC(=O)CCn1cc(F)c(=O)[nH]c1=O | 0.772 |
| Cn1cnc(S(=O)(=O)N[C@H]2CC[C@@H](CC(=O)NCC3CC3)O[C@H]2CO)c1 | 0.907 |
| CC1=C(/C=C/C(C)=C/C=C/C(C)=C/C=C/C=C(C)/C=C/C=C(C)/C=C/C(=O)[C@]2(C)C[C@@H](O)CC2(C)C)C(C)(C)C[C@H](O)C1 | 1.06 |
| O=C(O)c1cc(O)ccc1O | 1.09 |
| O=C(C[C@H]1CC[C@H]2[C@@H](COC[C@H](O)CN2C(=O)c2ccccc2)O1)NCCCN1CCOCC1 | 1.19 |
| CC1(O)CCC(C(C)(C)O)CC1.O (configuration not stated) | 1.37 |
| CCCCCCC#C[Si](O[C@H](c1ccccc1)c1cn([C@H](C)c2ccccc2)nn1)(C(C)C)C(C)C | 0.687 |
| COc1cc(C)c(C(=O)Oc2cc(C)c(C(=O)O)c(O)c2)c(O)c1 | 1.01 |
| O=C1O[C@@H](c2ccccc2)[C@@H](c2ccccc2)N2[C@@H](c3ccccc3OCCO)[C@]3(C(=O)Nc4ccc(C#CC5=CCCCC5)cc43)[C@@H](C(=O)N3CCCCCCC3)[C@H]12 | 0.989 |
| O=C(Cc1ccncc1)NCC[C@@H]1CC[C@H](NC(=O)C2CCOCC2)[C@H](CO)O1 | 1.07 |

| Compound | relative growth |
| --- | --- |
| Nc1cc(=O)[nH]c(=O)n1-c1ccc(Cl)cc1 | 1.04 |
| CS(=O)(=O)Nc1ccc2c(c1)[C@H]1C[C@@H](CC(=O)NCC3CC3)O[C@H](CO)[C@H]1O2 | 0.966 |
| CN(C)CC(=O)N[C@H]1C=C[C@H](CC(=O)NCCN2CCCCC2)O[C@@H]1CO | 1.03 |
| C[N+](C)(C)C[C@H](O)CC(=O)[O-] | 1 |
| O=C(O[C@@H]1Cc2c(O)cc(O)cc2O[C@@H]1c1cc(O)c(O)c(O)c1-c1c([C@H]2Oc3cc(O)cc(O)c3C[C@H]2OC(=O)c2cc(O)c(O)c(O)c2)cc(O)c(O)c1O)c1cc(O)c(O)c(O)c1 | 1.01 |
| Cc1ccc(Cc2nc(-c3ccc(Cl)cc3)cs2)cc1 | 1.25 |
| Cc1ccc2nc3c(cc(C(=O)NCCN4CCOCC4)c(=N)n3C[C@H]3CCCO3)c(=O)n2c1 | 1.02 |
| CN(C)c1nc2ncnc(N)c2[nH]1 | 1.04 |
| COc1ccc(C#Cc2ccc3c(c2)[C@]2(C(=O)N3)[C@H](C(=O)N3CCCCCCC3)[C@H]3C(=O)O[C@H](c4ccccc4)[C@H](c4ccccc4)N3[C@@H]2c2ccc(O)cc2)cc1 | 0.978 |
| COCC#Cc1ccc2c(c1)O[C@@H](CN(C)S(=O)(=O)c1cccc(F)c1)[C@H](C)CN([C@@H](C)CO)S2(=O)=O | 0.929 |
| O=C1c2ccccc2[C@](Cc2ccccc2I)(C(=O)NCCN2CCOCC2)[C@H](c2ccc(CO)cc2)N1C1CCCCC1 | 0.795 |
| COc1ccc(-c2cc(=O)c3c(OC)cc(OC)cc3o2)cc1 | 1.03 |
| COCC#Cc1ccc2c(c1)O[C@@H](CN(C)C(=O)c1ccccc1F)[C@@H](C)CN([C@@H](C)CO)S2(=O)=O | 1.15 |
| Cn1cnc(S(=O)(=O)N[C@H]2CC[C@@H](CC(=O)Nc3ccccc3)O[C@H]2CO)c1 | 0.981 |
| NCC[C@@H]1CC[C@@H](NC(=O)Cc2ccncc2)[C@H](CO)O1 | 1.21 |
| C=CC[C@H](CC(=O)N(CCO)Cc1ccccc1)C(=O)N[C@H](COC(=O)[C@H](CC=C)NC(=O)OCC1c2ccccc2-c2ccccc21)C(C)(C)C | 1.05 |
| CC(C)c1c(O)ccc2c1CCC1[C@@](C)(C=O)CCC[C@]21C (some centres not stated) | 0.921 |
| O=S(=O)([O-])c1cc(O)c2c(/N=N/c3ccc(Nc4ccccc4)c4c(S(=O)(=O)[O-])cccc34)cc(S(=O)(=O)[O-])cc2c1.[Na+].[Na+].[Na+] | 2.12 |
| C[C@@H](NC(=O)C[C@@H]1C=C[C@@H](NC(=O)CN2CCOCC2)[C@@H](CO)O1)c1ccccc1 | 1.06 |
| O=C(C[C@@H]1C=C[C@H](NC(=O)Cc2ccccn2)[C@H](CO)O1)NCCCN1CCOCC1 | 1.02 |
| O=C(O)CCCCCCCC(O)C(O)CCCCCCO (configuration not stated) | 1.03 |
| CO[C@H]1CN(C)C(=O)c2ccc(NC(=O)Nc3ccccc3)cc2OC[C@@H](C)N(C(=O)CN(C)C)C[C@@H]1C | 1.02 |
| COc1ccc(S(=O)(=O)N2C[C@@H](O)COC[C@H]3O[C@H](CC(=O)N[C@H]4CCN(Cc5ccccc5)C4)CC[C@@H]32)cc1 | 0.926 |
| COc1ccc2c(=O)cc(-c3ccccc3OC)oc2c1 | 1.2 |
| COc1cccc(S(=O)(=O)N[C@H]2C=C[C@H](CC(=O)NC3CCC3)O[C@@H]2CO)c1 | 1.1 |
| COC(=O)[C@@]1(C)CCC[C@]2(C)c3ccc(O)c(C(C)C)c3CCC12 (some centres not stated) | 0.975 |
